One may read the IC50 as the concentration at which inhibition is half-maximal.

Amino acid sequences for entries named in this document (tags omitted). A change or cut given only in a name is not applied to a line headed by its entry.
UniProt P22411: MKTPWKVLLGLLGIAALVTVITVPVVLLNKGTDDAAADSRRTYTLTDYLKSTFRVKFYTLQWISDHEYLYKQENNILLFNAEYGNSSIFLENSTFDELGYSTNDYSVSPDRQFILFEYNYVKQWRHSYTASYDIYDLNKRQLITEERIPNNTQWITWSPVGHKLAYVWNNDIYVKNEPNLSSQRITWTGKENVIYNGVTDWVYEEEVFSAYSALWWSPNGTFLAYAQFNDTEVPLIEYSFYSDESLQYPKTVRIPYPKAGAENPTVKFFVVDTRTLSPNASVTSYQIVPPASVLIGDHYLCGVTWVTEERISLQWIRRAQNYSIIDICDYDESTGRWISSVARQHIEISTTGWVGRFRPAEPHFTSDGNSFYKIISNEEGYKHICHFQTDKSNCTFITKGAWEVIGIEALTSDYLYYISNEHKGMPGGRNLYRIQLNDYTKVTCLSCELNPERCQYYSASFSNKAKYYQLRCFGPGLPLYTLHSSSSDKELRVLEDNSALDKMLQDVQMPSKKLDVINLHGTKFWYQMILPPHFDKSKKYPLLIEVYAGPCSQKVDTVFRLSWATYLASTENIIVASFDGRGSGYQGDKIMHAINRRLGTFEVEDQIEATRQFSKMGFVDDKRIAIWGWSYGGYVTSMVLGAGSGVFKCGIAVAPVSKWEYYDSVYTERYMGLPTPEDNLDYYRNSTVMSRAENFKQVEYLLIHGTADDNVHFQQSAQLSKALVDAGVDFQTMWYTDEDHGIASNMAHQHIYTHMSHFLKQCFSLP

Where only a bound is given, the exact number is not on record here.

The first test addresses Dipeptidyl peptidase 2 (Homo sapiens, UniProt Q9UHL4). Briefly: Inhibition of DPP2.
In turn, `N#C[C@@H]1CSCN1C(=O)CN(N)C1CCN(CC(=O)Nc2ccc(Cl)cn2)CC1` yielded an IC50 of more than 10 µM.

The target of another test is T1, Prolyl endopeptidase (Homo sapiens, UniProt P48147).
T1 sequence (P48147 whole entry): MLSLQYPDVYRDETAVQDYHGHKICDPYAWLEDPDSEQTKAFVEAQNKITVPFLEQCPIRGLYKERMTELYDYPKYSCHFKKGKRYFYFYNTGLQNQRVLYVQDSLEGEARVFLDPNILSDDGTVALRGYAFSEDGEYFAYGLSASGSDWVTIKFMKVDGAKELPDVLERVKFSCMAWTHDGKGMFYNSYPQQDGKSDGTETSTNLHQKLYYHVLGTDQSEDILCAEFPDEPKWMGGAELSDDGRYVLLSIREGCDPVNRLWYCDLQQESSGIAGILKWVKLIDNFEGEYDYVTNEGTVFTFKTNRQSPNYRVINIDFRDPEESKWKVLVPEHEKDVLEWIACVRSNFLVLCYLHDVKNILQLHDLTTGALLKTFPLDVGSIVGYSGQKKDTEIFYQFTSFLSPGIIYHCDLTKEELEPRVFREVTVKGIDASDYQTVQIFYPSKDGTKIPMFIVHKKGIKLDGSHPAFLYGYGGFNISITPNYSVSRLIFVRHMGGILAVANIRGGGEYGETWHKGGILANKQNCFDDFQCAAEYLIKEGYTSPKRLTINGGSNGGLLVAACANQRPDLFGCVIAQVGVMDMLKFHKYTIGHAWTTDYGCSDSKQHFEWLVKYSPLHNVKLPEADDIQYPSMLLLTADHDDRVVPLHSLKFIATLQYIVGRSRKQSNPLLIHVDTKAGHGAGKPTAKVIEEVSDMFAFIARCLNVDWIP
Briefly: Inhibition of PEP.
Regarding `N#C[C@@H]1CSCN1C(=O)CN(N)C1CCN(CC(=O)Nc2ccc(Cl)cn2)CC1`, the IC50 is more than 10 µM.

For the next test, the target named is Dipeptidyl peptidase 4 (Sus scrofa, UniProt P22411). Briefly: Inhibition of pig kidney DPP4 by spectrophotometric method.
For `N#Cc1ccc(CN2CCC(N(N)CC(=O)N3CSC[C@H]3C#N)CC2)cc1`, the IC50 is 710 nM. Same read-out and setting: next, `N#C[C@@H]1CSCN1C(=O)CN(N)C1CCN(CC(=O)Nc2cccnc2Cl)CC1` [listing 1 of 2 here]: 119 nM; `N#C[C@H]1CSCN1C(=O)CN(N)C1CCN(CC(=O)Nc2ccc(Cl)cn2)CC1`: 4050 nM; `N#C[C@@H]1CSCN1C(=O)CN(N)C1CCN(CC(N)=O)CC1`: 817 nM. On the same count and under the same terms, next, `N#C[C@@H]1CSCN1C(=O)CN(N)C1CCN(CC(=O)Nc2ccc3c(c2)OCCO3)CC1`: 222 nM; `N#C[C@@H]1CSCN1C(=O)CN(N)C1CCN(CC(=O)Nc2ccc(Cl)cc2)CC1`: 258 nM. The same measure, in the same setting: in the case of `N#C[C@@H]1CSCN1C(=O)CN(N)C1CCN(CC(=O)Nc2cccnc2Cl)CC1` [listing 2 of 2 here] it was 124 nM. Compound `N#C[C@@H]1CSCN1C(=O)CN(N)C1CCN(CC(=O)NCCc2cccs2)CC1` gave an IC50 of 415 nM. In the case of `N#C[C@@H]1CSCN1C(=O)CN(N)C1CCN(C(=O)Cc2cccnc2)CC1`, the IC50 turned out to be 667 nM.

The record behind these values is ChEMBL document CHEMBL1153816, “Novel N-substituted 4-hydrazino piperidine derivative as a dipeptidyl peptidase IV inhibitor” (Bioorg Med Chem Lett, 2009).
